Test results as given in patent publication US6451814B1, “Heterocyclic β-3 adrenergic receptor agonists” (Wyeth, priority 2000, dated 2002).

By UniProt entry, the sequences of proteins in these tests, tags left out. Where a name states a change or a piece, a line headed by the entry shows the natural chain unless it says otherwise.
UniProt P13945: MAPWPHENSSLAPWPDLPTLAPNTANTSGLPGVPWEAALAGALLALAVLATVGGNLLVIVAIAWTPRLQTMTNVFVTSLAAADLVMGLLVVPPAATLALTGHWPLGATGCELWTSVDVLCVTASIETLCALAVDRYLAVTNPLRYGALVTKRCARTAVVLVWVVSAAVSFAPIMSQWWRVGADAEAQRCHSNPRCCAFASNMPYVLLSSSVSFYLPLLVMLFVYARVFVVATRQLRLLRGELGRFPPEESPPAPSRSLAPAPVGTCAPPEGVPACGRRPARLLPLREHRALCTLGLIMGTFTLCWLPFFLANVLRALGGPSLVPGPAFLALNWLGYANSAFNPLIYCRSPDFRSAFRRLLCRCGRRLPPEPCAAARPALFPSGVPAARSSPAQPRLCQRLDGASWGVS

What follows are compounds tested against T1, human β3-adrenergic receptor (Homo sapiens, UniProt P13945) (assay: cAMP response (SPA kit) in CHO cells transfected with human β3 adrenergic receptor). Settings: CHO cells expressing human β3-AR; 10^-9 M to 10^-5 M; 30 min at 37° C.; cAMP by SPA.
T1 construct: Full length β3 AR clones (402 amino acids) containing the last 6 amino acids of hβ3—AR are prepared; expressed in transfected cells; host or cells: CHO cells
Type: cell-based

Point of comparison: `O=C(NCc1cc(F)ccc1F)N1CCC(Nc2ccc(CCNC[C@H](O)COc3ccc(O)cc3)cc2)CC1` [Example 37, 4-(4-{2-[(2S)-2-Hydroxy-3-(4-hydroxy-phenoxy)-propylamino]-ethyl}-phenylamino)-piperidine-1-carboxylic Acid 2,5-difluoro-benzylamide], EC50 23 nM. Against it:
- O=C(NCc1c(F)cccc1F)N1CCC(Nc2ccc(CCNC[C@H](O)COc3ccc(O)cc3)cc2)CC1 [Example 32, 4-(4-{2-[(2S)-2-Hydroxy-3-(4-hydroxy-phenoxy)-propylamino]-ethyl}-phenylamino)-piperidine-1-carboxylic Acid 2,6-difluoro-benzylamide] — within 1.5-fold, 32 nM
- CCCCCCCCNC(=O)N1CCC(Nc2ccc(CCNC[C@H](O)COc3ccc(O)c4c3CCC(=O)N4)cc2)CC1 [Example 69, 4-(4-{2-[(2S)-2-Hydroxy-3-(8-hydroxy-2-oxo-1,2,3,4-tetrahydro-quinolin-5-yloxy)-propylamino]-ethyl}-phenylamino)-piperidine-1-carboxylicacid Octylamide] — 2.9-fold higher, 66 nM
- CNC(=O)N1CCC(Nc2ccc(CCNC[C@H](O)COc3ccc(O)cc3)cc2)CC1 [Example 9, 4-(4-{2-[(2S)-2-Hydroxy-3-(4-hydroxy-phenoxy)-propylamino]-ethyl}-phenylamino)-piperidine-1-carboxylic Acid Methylamide] — 2-fold higher, 47 nM
- CS(=O)(=O)Nc1cc(OC[C@@H](O)CNCCc2ccc(NC3CCN(C(=O)NCc4cc(F)ccc4F)CC3)cc2)ccc1O [Example 50, 4-(4-{2-[(2S)-2-Hydroxy-3-(4-hydroxy-3-methanesulfonylamino-phenoxy)-propylamino]-ethyl}-phenylamino)-piperidine-1-carboxylic Acid 2,5-difluoro-benzylamide] — 23-fold lower, 1 nM
- O=C(NCc1ccc(F)cc1F)N1CCC(Nc2ccc(CCNC[C@H](O)COc3ccc(O)cc3)cc2)CC1 [Example 80, 4-(4-{2-[(2S)-2-Hydroxy-3-(4-hydroxy-phenoxy)-propylamino]-ethyl}-phenylamino)-piperidine-1-carboxylic acid 2,4-difluoro-benzylamide] — within 1.5-fold, 30 nM
- CS(=O)(=O)Nc1cc([C@@H](O)CNCCc2ccc(NC3CCN(C(=O)NCc4cc(F)ccc4F)CC3)cc2)ccc1O [Example 76, 4-(4-{2-[(2R)-2-Hydroxy-2-(4-hydroxY-3-methanesulfonylamino-phenyl)-ethylamino]-ethyl}-phenylamino)-piperidine-1-carboxylic Acid 2,5-difluoro-benzylamide] — 4.6-fold lower, 5 nM
- CCCCCCCCNC(=O)N1CCC(Nc2ccc(CCNC[C@H](O)c3cccc(Cl)c3)cc2)CC1 [Example 36, 4-(4-{2-[(2R)-2-(3-Chloro-phenyl)-2-hydroxy-ethylamino]-ethyl}-phenylamino)-piperidine-1-carboxylic Acid Octylamide] — 44-fold higher, 1020 nM
- NC(=O)N1CCC(Nc2ccc(CCNC[C@H](O)COc3ccc(O)cc3)cc2)CC1 [Example 18, 4-(4-{2-[(2S)-2-Hydroxy-3-(4-hydroxy-phenoxy)-propylamino]-ethyl}-phenylamino)-piperidine-1-carboxylic Acid Amide] — within 1.5-fold, 30 nM
- CCCCCCCCNC(=O)N1CCC(Nc2ccc(CCNC[C@H](O)COc3ccc(N)nc3)cc2)CC1 [Example 5, 4-(4-{2-[(2S)-3-(6-Amino-pyridin-3-yloxy)-2-hydroxy-propylamino]-ethyl}-phenylamino)-piperidine-1-carboxylic Acid Octylamide] — 13-fold higher, 290 nM
- O=C(NCc1ccc(Cl)cc1Cl)N1CCC(Nc2ccc(CCNC[C@H](O)COc3ccc(O)cc3)cc2)CC1 [Example 20, 4-(4-{2-[(2S)-2-Hydroxy-3-(4-hydroxy-phenoxy)-propylamino]-ethyl}-phenylamino)-piperidine-1-carboxylic Acid 2,4-dichloro-benzylamide] — 11-fold higher, 250 nM
- O=C(NCc1ccccc1F)N1CCC(Nc2ccc(CCNC[C@H](O)COc3ccc(O)cc3)cc2)CC1 [Example 26, 4-(4-{2-[(2S)-2-Hydroxy-3-(4-hydroxy-phenoxy)-propylamino]-ethyl}-phenylamino)-piperidine-1-carboxylic Acid 2-fluoro-benzylamide] — 1.6-fold higher, 37 nM
